Laboratory results from patent US9951071B2 (dated 2018).

Amino acid sequences for entries named in this document (tags omitted).
UniProt P03952, whole entry, looked up: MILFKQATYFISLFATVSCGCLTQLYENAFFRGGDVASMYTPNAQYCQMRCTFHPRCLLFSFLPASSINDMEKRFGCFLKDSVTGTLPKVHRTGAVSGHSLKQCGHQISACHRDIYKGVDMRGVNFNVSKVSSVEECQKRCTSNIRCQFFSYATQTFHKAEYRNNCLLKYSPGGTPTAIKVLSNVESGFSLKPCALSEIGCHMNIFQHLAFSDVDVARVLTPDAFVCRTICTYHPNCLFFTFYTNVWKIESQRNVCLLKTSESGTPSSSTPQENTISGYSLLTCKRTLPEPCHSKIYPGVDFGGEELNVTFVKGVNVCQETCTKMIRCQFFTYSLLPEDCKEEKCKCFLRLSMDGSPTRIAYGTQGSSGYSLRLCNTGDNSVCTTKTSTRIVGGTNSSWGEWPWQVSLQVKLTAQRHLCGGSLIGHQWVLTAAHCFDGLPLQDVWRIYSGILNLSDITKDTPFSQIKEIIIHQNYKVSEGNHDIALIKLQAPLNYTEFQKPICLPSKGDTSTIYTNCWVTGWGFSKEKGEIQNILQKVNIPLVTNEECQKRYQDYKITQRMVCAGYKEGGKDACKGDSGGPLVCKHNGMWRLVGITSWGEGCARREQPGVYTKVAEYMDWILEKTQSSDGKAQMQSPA

Molecular target: purified human plasma kallikrein (Homo sapiens (Human), UniProt P03952)
Test: biochemical

`COC(=O)c1ccc2c(c1)-c1cccc(c1)[C@@H](N1CC=C(c3c(F)ccc(Cl)c3F)CC1=O)CCC[C@@H](C)C(=O)N2` [Example 174, Methyl (10R,14S)-14-[4-(3-chloro-2,6-difluorophenyl)-2-oxo-1,2,3,6-tetrahydropyridin-1-yl]-10-methyl-9-oxo-8-azatricyclo[13.3.1.0^2,7]nonadeca-1(19),2,4,6,15,17-hexaene-4-carboxylate] was tested, and the Ki was 1400 nM.
For `COC(=O)c1ccc2c(c1)-c1cccc(c1)[C@@H](N1CC=C(c3c(Br)ccc(Cl)c3F)CC1=O)CCC[C@@H](C)C(=O)N2` [Example 176, Methyl (10R,14S)-14-[4-(6-bromo-3-chloro-2-fluorophenyl)-2-oxo-1,2,3,6-tetrahydropyridin-1-yl]-10-methyl-9-oxo-8-azatricyclo[13.3.1.0^2,7]nonadeca-1(19),2,4,6,15,17-hexaene-4-carboxylate], the Ki was 523 nM.
